E-sel inducer: E-selectin induction on HUVECs; P16581; HUVEC E-selectin immunofluorescence imaging; normalized: neutral wells 0, TNF-alpha wells 100; activation, % at 7.58 µM; hit rate 0.37% among 260,000;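 active = mean E-selectin-positive cell signal at least 10% of the positive control, reached in at least 60% of replicates, without over 20% cell loss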
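assay system = HUVEC, human umbilical vein endothelial cells | input = 3,000 HUVEC seeded per well | medium = EGM-2 growth medium on 0.1% gelatin-coated wells | dosing = one compound dose added by pin transfer | signal = immunofluorescence imaging | read-out basis = % PE-positive cells | control set = TNF-alpha, DMSO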
XiGFP reactiv: X-chromosome reactivation activator. XiGFP mouse fibroblasts, % GFP-positive cells imaging, 3 d; cells co-treated with 5-aza-dC sensitizer; scaled so ellipticine positive control = 100%. activation, % at 7.58 µM. hit rate 0.055% among 360,000. AID 743238;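 active = mean normalized replicate activation at least 10% and every replicate at or above 10%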;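 note: 0% = median of on-plate neutral control wells and 100% = ellipticine 6 µM median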
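System: SV40-immortalized XiGFP fibroblast cells, line 68-5-11 / Incubation: 3-day compound exposure, then 15 min fixation at room temperature / Compound: single concentration per compound, delivered by pin transfer / Buffer or medium: DMEM plus 5-aza-dC sensitizer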
RAD54 inh: RAD54 (human) branch migration inhibition; Q92698; RAD54 Holliday junction branch migration, FAM/BHQ fluorescence; inhibition, % at 10.4 µM; hit rate 0.14% among 360,000;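 active = mean normalized replicate activity at least 40 and at least half of replicates scoring 40 or more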;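 note: 0% = median of neutral control wells and 100% = median of positive control wells; inhibitors cause a drop in the FAM fluorescence signal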
RAD52 anneal inh: RAD52 (human) annealing inhibition; P43351; recombinant RAD52 DNA annealing, FRET fluorescence; inhibition, % at 18.7 µM; hit rate 0.46% among 360,000;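 active = every replicate showing at least 50% inhibition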
UUG fidelity: modulators of start codon recognition fidelity in yeast; activity score, % at 18.7 µM; actives 0.13% (n = 350,000); S. cerevisiae UUG-firefly luciferase reporter, luminescence/redox ratio;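 active = replicate mean at a twofold rise or more, about +100% in these data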;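 note: firefly luciferase made from a UUG start codon reports start codon fidelity; reporter light over untreated wells divided by growth signal over untreated wells; some hits fall short of that in this replicate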
* hit, by the source's call; ! = not active in a repeat. Shown are actives, neighbours in structure and some others; about 0.73% of the full set was active somewhere.

How did CS(=O)(=O)N1C[C@H](O)COC[C@@H]2O[C@@H](CC(=O)NCc3ccc(-c4ccccc4)cc3)CC[C@H]21 do in these assays?
E-sel inducer: 0; XiGFP reactiv: 0; RAD54 inh: 7; RAD52 anneal inh: 78*

Results for C[C@@H]1CCCCO[C@H](CN(C)S(=O)(=O)c2cccs2)[C@@H](C)CN([C@@H](C)CO)C(=O)c2cc(NS(=O)(=O)c3cn(C)cn3)ccc2O1 ?
XiGFP reactiv: 0; RAD54 inh: -2; RAD52 anneal inh: 36; UUG fidelity: -4

How did C[C@@H]1CCCCO[C@@H](CN(C)S(=O)(=O)c2cccs2)[C@H](C)CN([C@@H](C)CO)C(=O)c2cc(NS(=O)(=O)c3cn(C)cn3)ccc2O1 do in these assays?
XiGFP reactiv: 0; RAD54 inh: 2; RAD52 anneal inh: 84*; UUG fidelity: -3

Results for C[C@@H]1CN([C@@H](C)CO)C(=O)c2cc(NS(=O)(=O)c3cn(C)cn3)ccc2O[C@@H](C)CCCCO[C@@H]1CN(C)S(=O)(=O)c1cccs1 ?
XiGFP reactiv: 0; RAD54 inh: -1; RAD52 anneal inh: -122; UUG fidelity: -6

How did C[C@@H]1CCCCO[C@@H](CN(C)S(=O)(=O)c2cccs2)[C@@H](C)CN([C@@H](C)CO)C(=O)c2cc(NS(=O)(=O)c3cn(C)cn3)ccc2O1 do in these assays?
XiGFP reactiv: 0; RAD54 inh: 2; RAD52 anneal inh: 111*; UUG fidelity: -11

How did C[C@@H]1CN([C@H](C)CO)C(=O)c2cc(NS(=O)(=O)c3cn(C)cn3)ccc2O[C@@H](C)CCCCO[C@H]1CN(C)S(=O)(=O)c1cccs1 do in these assays?
XiGFP reactiv: 0; RAD52 anneal inh: 4

Results for C[C@H]1CCCCO[C@@H](CN(C)S(=O)(=O)c2cccs2)[C@@H](C)CN([C@@H](C)CO)C(=O)c2cc(NS(=O)(=O)c3cn(C)cn3)ccc2O1 ?
XiGFP reactiv: 0; RAD54 inh: -1; RAD52 anneal inh: 109*; UUG fidelity: -7

Results for Cc1noc(C)c1NC(=O)Nc1cccc2c1O[C@H](CN(C)Cc1ccc(Cl)c(Cl)c1)[C@H](C)CN([C@H](C)CO)C2=O ?
E-sel inducer: -4; XiGFP reactiv: -1; RAD54 inh: -7; RAD52 anneal inh: 0; UUG fidelity: 0

How did C[C@H]1CN([C@@H](C)CO)C(=O)c2cc(NC(=O)Nc3ccc(F)cc3)ccc2O[C@H]1CN(C)Cc1ccc(Cl)c(Cl)c1 do in these assays?
RAD54 inh: 6; RAD52 anneal inh: -8; UUG fidelity: 0

Results for CC(C)CC#Cc1ccc2c(c1)O[C@H](CN(C)C(=O)CN(C)C)[C@H](C)CN([C@H](C)CO)S2(=O)=O ?
E-sel inducer: 0; XiGFP reactiv: 0; RAD54 inh: 14; RAD52 anneal inh: 30; UUG fidelity: 20

What do the screens show for `C[C@@H]1CN([C@@H](C)CO)C(=O)CCCn2nncc2CO[C@H]1CN(C)C(=O)Nc1ccc(N2CCN(C)CC2)cc1`?
E-sel inducer: 0; XiGFP reactiv: 0; RAD54 inh: 6; RAD52 anneal inh: 58*!; UUG fidelity: -8

Results for C[C@@H]1CN([C@@H](C)CO)C(=O)CCCn2nncc2CO[C@@H]1CN(C)C(=O)Nc1ccc(N2CCN(C)CC2)cc1 ?
E-sel inducer: 0; XiGFP reactiv: 0; RAD54 inh: -5; RAD52 anneal inh: 2; UUG fidelity: -11

Results for C[C@H](CO)N1C[C@H](C)[C@@H](CN(C)C(=O)Nc2ccc(N3CCN(C)CC3)cc2)OCc2cnnn2CCCC1=O ?
E-sel inducer: 6; XiGFP reactiv: 0; RAD54 inh: -13; RAD52 anneal inh: 55*!; UUG fidelity: -3

What do the screens show for `C[C@@H]1CN([C@H](C)CO)C(=O)CCCn2cc(nn2)CO[C@H]1CN(C)C(=O)Nc1ccc(N2CCN(C)CC2)cc1`?
E-sel inducer: 0; XiGFP reactiv: 0; RAD54 inh: 8; RAD52 anneal inh: 62*; UUG fidelity: -8

How did C[C@@H]1CN([C@H](C)CO)C(=O)CCCn2nncc2CO[C@@H]1CN(C)C(=O)Nc1ccc(N2CCN(C)CC2)cc1 do in these assays?
E-sel inducer: 4; XiGFP reactiv: 0; RAD54 inh: 2; RAD52 anneal inh: 7; UUG fidelity: 10

How did O=C(C[C@@H]1CC[C@@H]2[C@H](COC[C@@H](O)CN2C(=O)c2ccccc2)O1)N1CCOCC1 do in these assays?
E-sel inducer: 0; XiGFP reactiv: 0; RAD54 inh: 2; RAD52 anneal inh: -54

How did C[C@H]1CN([C@@H](C)CO)C(=O)c2cc(NC(=O)CCCN(C)C)ccc2O[C@H]1CN(C)Cc1ccc(C(F)(F)F)cc1 do in these assays?
E-sel inducer: 42*; XiGFP reactiv: 0; RAD54 inh: 0; RAD52 anneal inh: 1; UUG fidelity: 2

Results for C[C@H]1CN([C@@H](C)CO)C(=O)c2cc(NC(=O)CCC(F)(F)F)ccc2O[C@H]1CN(C)Cc1ccc(C(F)(F)F)cc1 ?
E-sel inducer: 19; XiGFP reactiv: 0; RAD54 inh: -8; RAD52 anneal inh: 7; UUG fidelity: -7

What do the screens show for `C[C@@H]1CN([C@H](C)CO)C(=O)c2cc(NC(=O)CCC(F)(F)F)ccc2O[C@@H]1CN(C)Cc1ccc(C(F)(F)F)cc1`?
E-sel inducer: 52*; XiGFP reactiv: 0; RAD54 inh: -15; RAD52 anneal inh: 5; UUG fidelity: 0

Results for Cc1[nH]c(C)c(S(=O)(=O)N2CCN(c3ccccc3)CC2)c1C(=O)N1CCCC1 ?
XiGFP reactiv: 0; RAD54 inh: 4; RAD52 anneal inh: -12; UUG fidelity: 3

How did Cc1[nH]c(C)c(S(=O)(=O)N2CCCCC2)c1C(=O)N1CCCC1 do in these assays?
E-sel inducer: 85*; XiGFP reactiv: 0; RAD54 inh: -14; RAD52 anneal inh: -8; UUG fidelity: -19

What do the screens show for `COc1ccc2c3c(n(C)c2c1)[C@H](CO)N(C(C)=O)CC31CCN(Cc2ccc(Cl)cc2)CC1`?
E-sel inducer: 0; XiGFP reactiv: 0; RAD52 anneal inh: 23

How did Cc1ccc(C)c(S(=O)(=O)N2CCCCC2CCNC(=O)C(=O)NCCc2ccco2)c1 (stereo unspecified) do in these assays?
E-sel inducer: 62*; XiGFP reactiv: 0; RAD54 inh: -1; RAD52 anneal inh: -11; UUG fidelity: -8

How did O=C(Nc1ccc(C(F)(F)F)cc1)N1C[C@@H]2N[C@H](C1)C2c1ccc(/C=C/c2ccccc2)cc1 (stereo partly specified) do in these assays?
E-sel inducer: 0; XiGFP reactiv: 0; RAD52 anneal inh: 65*

How did O=C(Nc1ccc(C(F)(F)F)cc1)N1[C@@H]2CNC[C@H]1C2c1ccc(-c2ccc(F)cc2)cc1 (stereo partly specified) do in these assays?
E-sel inducer: 0; XiGFP reactiv: 0; RAD52 anneal inh: 61*

Fetched one by one from the list above:
How did O=C(Nc1ccc(C(F)(F)F)cc1)N1C[C@@H]2N[C@H](C1)C2c1ccc(/C=C/c2ccccc2)cc1 (stereo partly specified) do in these assays?
E-sel inducer: 0; XiGFP reactiv: 0; RAD52 anneal inh: 65*

What do the screens show for `C[C@@H]1CN([C@H](C)CO)C(=O)CCCn2cc(nn2)CO[C@H]1CN(C)C(=O)Nc1ccc(N2CCN(C)CC2)cc1`?
E-sel inducer: 0; XiGFP reactiv: 0; RAD54 inh: 8; RAD52 anneal inh: 62*; UUG fidelity: -8

Results for Cc1[nH]c(C)c(S(=O)(=O)N2CCN(c3ccccc3)CC2)c1C(=O)N1CCCC1 ?
XiGFP reactiv: 0; RAD54 inh: 4; RAD52 anneal inh: -12; UUG fidelity: 3

Screening results deposited in PubChem BioAssay by Broad Institute.
